Source: publication PMC8654833 (Scientific Reports, 2021)

Protein sequences, listed by entry. Tags and fused reporters are not part of them.
UniProt P28222, whole entry, species assumed: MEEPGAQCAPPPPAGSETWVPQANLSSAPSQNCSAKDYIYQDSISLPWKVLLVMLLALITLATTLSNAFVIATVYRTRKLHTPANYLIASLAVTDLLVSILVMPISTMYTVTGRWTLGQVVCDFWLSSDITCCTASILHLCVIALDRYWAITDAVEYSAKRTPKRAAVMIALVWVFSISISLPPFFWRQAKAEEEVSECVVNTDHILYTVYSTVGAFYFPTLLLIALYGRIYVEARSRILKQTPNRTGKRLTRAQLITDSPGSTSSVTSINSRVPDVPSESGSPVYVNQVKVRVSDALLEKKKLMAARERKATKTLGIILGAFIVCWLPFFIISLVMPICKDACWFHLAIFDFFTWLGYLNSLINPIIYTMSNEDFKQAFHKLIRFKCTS

Molecular target: T1, 5-HT1B (Homo sapiens, UniProt P28222)
T1 construct: Euroscreen FAST (contract assay)
Test: Radioligand binding competition dose-response (Euroscreen), 5-HT1B
Conditions: dose-response study, maximal concentration 10 µM, [3H]5-CT

SMILES: NCCc1c[nH]c2ccc(O)cc12 [5-HT]
- %Binding inhibition at 10 µM: 103.54%
